Experimental data taken from paper PMC3481835 (Clinical pharmacology and therapeutics, 2011).

By UniProt entry, the sequences of proteins in these tests, tags left out.
UniProt P08684, whole entry: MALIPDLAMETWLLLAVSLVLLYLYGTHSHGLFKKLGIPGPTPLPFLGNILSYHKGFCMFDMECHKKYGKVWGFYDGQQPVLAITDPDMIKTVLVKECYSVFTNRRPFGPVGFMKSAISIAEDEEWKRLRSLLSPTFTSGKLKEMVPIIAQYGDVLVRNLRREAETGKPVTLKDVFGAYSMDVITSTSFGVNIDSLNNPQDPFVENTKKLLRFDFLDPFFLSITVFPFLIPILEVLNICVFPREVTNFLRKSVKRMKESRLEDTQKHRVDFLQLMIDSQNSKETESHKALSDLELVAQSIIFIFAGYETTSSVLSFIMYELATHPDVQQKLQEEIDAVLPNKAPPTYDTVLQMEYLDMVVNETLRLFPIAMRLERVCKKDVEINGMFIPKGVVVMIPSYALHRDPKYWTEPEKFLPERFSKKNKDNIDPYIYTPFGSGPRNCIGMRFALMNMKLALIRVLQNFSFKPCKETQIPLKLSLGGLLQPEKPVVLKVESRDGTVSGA

How the values were obtained:
CYP3A4 [1] = biological target: T1, CYP3A4 (Homo sapiens, UniProt P08684); experiment: Formation clearance; type: in vivo
CYP3A4 [2] = biological target: T1, CYP3A4; type: in vivo
CYP3A4 [3] = biological target: T1, CYP3A4; experiment: In vivo IC50 and maximum inhibition
[4] = 200 or 400 mg itraconazole, p<0.017

Compound: CCC(C)n1ncn(-c2ccc(N3CCN(c4ccc(OCC5COC(Cn6cncn6)(c6ccc(Cl)cc6Cl)O5)cc4)CC3)cc2)c1=O (stereo not drawn) [itraconazole]
- decrease in CLf of cortisol and cortisone hydroxylation (CYP3A4 [1]; 50 mg itraconazole, not significant): 24%
- decrease in CLf of cortisol and cortisone hydroxylation (CYP3A4 [1]; 200 mg and 400 mg itraconazole): up to 60%
- decrease in 6β-hydroxycortisol CLf (CYP3A4 [1]; 400 mg itraconazole, p=0.017): 51%
- decrease in 6β-hydroxycortisone CLf (CYP3A4 [1]; [4]): 34-41%
- decrease in combined CLf of 6β-hydroxycortisone and 6β-hydroxycortisol (CYP3A4 [1]; [4]): 40-49%
- CYP3A4 inhibition (decrease in apparent CLf) (CYP3A4 [2]; 24-48 hours after 400 mg): 48-56%
- decrease in each apparent CLf (CYP3A4 [2]; 200 and 400 mg doses, p<0.017): 40-48%
- maximum inhibition observed in vivo, cortisol and cortisone 6β-hydroxylation (CYP3A4 [3]; after itraconazole administration): 60%
- RKi (IC50,in vitro/IC50,in vivo), CLf of cortisone and cortisol 6β-hydroxylation (CYP3A4 [3]; in vivo): 2.0
- maximum inhibition from in vivo IC50 fits, 6β-hydroxycortisol CLf (CYP3A4 [3]; in vivo): 61%
- maximum inhibition from in vivo IC50 fits, 6β-hydroxycortisone CLf (CYP3A4 [3]; in vivo): 52%
- maximum inhibition from in vivo IC50 fits, combined CLf (CYP3A4 [3]; in vivo): 59%
